# Measurements taken from PubChem BioAssay AID1481 (The Scripps Research Institute Molecular Screening Center, 2009).
# Chains of the proteins cited; added tags and fusions are not shown.
# UniProt P55072, whole entry, looked up: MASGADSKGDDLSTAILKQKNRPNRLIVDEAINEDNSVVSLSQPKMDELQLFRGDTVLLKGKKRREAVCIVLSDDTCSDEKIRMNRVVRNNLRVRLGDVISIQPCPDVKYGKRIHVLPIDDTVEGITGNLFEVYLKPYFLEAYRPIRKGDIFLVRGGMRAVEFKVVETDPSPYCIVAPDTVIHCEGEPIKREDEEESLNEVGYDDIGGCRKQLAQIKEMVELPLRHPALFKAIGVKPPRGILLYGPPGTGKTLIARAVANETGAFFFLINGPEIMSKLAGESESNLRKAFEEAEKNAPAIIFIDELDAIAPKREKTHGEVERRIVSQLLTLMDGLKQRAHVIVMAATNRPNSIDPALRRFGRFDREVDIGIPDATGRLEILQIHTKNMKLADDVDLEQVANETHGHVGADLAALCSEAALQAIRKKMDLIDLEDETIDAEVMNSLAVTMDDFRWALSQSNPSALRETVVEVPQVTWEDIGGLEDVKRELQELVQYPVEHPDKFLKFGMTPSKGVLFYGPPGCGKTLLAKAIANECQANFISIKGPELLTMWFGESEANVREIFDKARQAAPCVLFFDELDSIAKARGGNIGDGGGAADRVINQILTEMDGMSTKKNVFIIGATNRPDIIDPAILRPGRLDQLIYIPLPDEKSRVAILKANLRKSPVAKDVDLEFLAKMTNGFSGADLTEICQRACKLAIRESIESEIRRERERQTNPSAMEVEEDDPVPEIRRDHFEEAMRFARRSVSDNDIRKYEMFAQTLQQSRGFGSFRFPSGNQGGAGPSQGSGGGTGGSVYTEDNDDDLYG
# Values joined by “and” are separate entries in the source; they are usually repeats but may differ in a detail not shown here. Equal values may be shown once. The list shows a part of the results, in another mix than the full data. Active and inactive are the calls of the source. Rule as the data show it: active = inhibition above about 15%; inactive = the rest.
# Molecular target: Transitional endoplasmic reticulum ATPase (Homo sapiens) (UniProt P55072)
# Assay: p97 ATP hydrolysis blockers – biochemical, primary screen (AID 1481);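 also: 0% = DMSO vehicle and 100% = wells lacking enzyme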
# Details: recombinant p97 ATPase, Kinase-Glo ATP luminescence, 3 h; at 8 µM; hits give high values
row,SMILES,inhibition
1,CC(C)/C=N\N=C(\N)N[N+](=O)[O-],inactive: 5.63%
2,CN(C(=O)Cc1ccc(Cl)c(Cl)c1)[C@@H]1CCCC[C@H]1N1CCCC1,inactive: 5.05%
3,O=[As](O)(c1ccccc1Br)c1ccccc1Br,inactive: 2.75%
4,CC1(CBr)Cn2c(nc3ccccc3c2=O)S1 (stereo not drawn),inactive: -0.34%
5,O=P1(Nc2ccccn2)COc2ccccc2OC1,inactive: 2.5%
6,CCOP(=O)(Nc1ccc(C)cn1)OCC,inactive: 2.99%
7,Clc1n[nH]nc1-c1nn[nH][15n]1,inactive: -3.56%
8,CC(C)(C)C(=O)NC(Sc1ncccn1)C(Cl)(Cl)Cl (stereo not drawn),inactive: 2.11%
9,O=P1(Nc2ncccn2)COc2ccccc2OC1,inactive: 1.53%
10,Nc1cccc([As](=O)(O)c2ccccc2)c1,inactive: -0.55%
11,O=P1(Nc2ccc(Br)cn2)COc2ccccc2OC1,inactive: 4.01%
12,Cc1ccc(OCC(=O)OC2CN3CCC2CC3)cc1 (stereo not drawn),inactive: -2.71%
13,O=[As](O)(c1cccs1)c1cccs1,inactive: 4.62%
14,Cc1nn(-c2ccccc2)c2c1P(=O)(N1CCOCC1)N(C)C(c1ccccc1)=N2 (stereo not drawn),inactive: -3.87%
15,CC1CCC(C(C)C)C(OP(=O)(Nc2ccccn2)c2ccccc2)C1 (stereo not drawn),inactive: -5.84%
16,CN(C)C1(CNC(=O)c2ccc(S(C)(=O)=O)cc2)CCCCC1,inactive: 1.06%
17,O=C(/C=C/c1ccccc1)OC1CN2CCC1CC2 (stereo not drawn),inactive: -6.68%
18,CCOP1(=S)c2c(C)nn(CCC#N)c2N=C(c2ccc(F)cc2)N1C (stereo not drawn),inactive: 1.81%
19,O=[N+]([O-])c1ccc2c(c1)nnn2O,inactive: 4.59%
20,CCOP1(=S)c2c(C)nn(CCC#N)c2N=C(c2ccccc2F)N1C (stereo not drawn),inactive: 0.91%
21,O=P(Nc1nccs1)(c1ccccc1)c1nc2ccccc2s1 (stereo not drawn),inactive: 3.24%
22,O=P(Nc1nccs1)(Oc1ccccc1)Oc1ccccc1,inactive: 0.83%
23,CS(=O)(=O)c1cc([N+](=O)[O-])c2no[n+]([O-])c2c1,inactive: 7.08%
24,Nc1ccccc1[As](=O)(O)c1ccccc1,inactive: -0.71%
25,O=C(O)COc1ccc([As](=O)(O)O)cc1[N+](=O)[O-],inactive: 8.13%
26,Cc1ccc(NCCc2c([N+](=O)[O-])cc([N+](=O)[O-])cc2[N+](=O)[O-])cc1,inactive: 2.71%

row,SMILES,inhibition
1,Nc1cccc2c([As](=O)(O)O)cccc12,inactive: 6.37%
2,CCCOP(=S)(Nc1nc(N)cc(=O)[nH]1)OCCC,inactive: 8.07%
3,COc1cc(C2NCCC3(OCCO3)C2(C)C)cc(OC)c1OC (stereo not drawn),inactive: -6.2%
4,CCOP(=O)(Nc1cccc2ccccc12)OCC,inactive: -6.56%
5,O=C(OC1CN2CCC1CC2)c1ccc(Cl)cc1 (stereo not drawn),inactive: 10.2%
6,COc1cc(C(=O)NCC2(N3CCOCC3)CCCCC2)cc(Cl)c1OC(C)C,inactive: 0.36%
7,O=[As](O)(O)c1cccnc1,inactive: -4.9%
8,O=[As](O)(c1cccc(O)c1)c1cccc(O)c1,inactive: 0.38%
9,Cc1cccc(OCC(=O)OC2CN3CCC2CC3)c1 (stereo not drawn),inactive: 3.08%
10,COc1ccc(N/C(=N/P(=O)(N2CCOCC2)N2CCOCC2)N2CCOCC2)cc1,inactive: 4.41%
11,Cc1c2c(nc3ccccc13)SC(C(Cl)Cl)C2 (stereo not drawn),inactive: 6.29%
12,O=C(OC1CN2CCC1CC2)C12CC3CC(CC(C3)C1)C2 (stereo not drawn),inactive: -6.23%
13,Cc1cc(=O)[nH]c(N[N+](=O)[O-])n1,inactive: 8.66%
14,COc1ccc2nc(NP(=O)(c3ccccc3)c3ccccc3)sc2c1,inactive: 3.13%
15,COc1cc(I)ccc1[As](=O)(O)O,inactive: 2.19%
16,ClCCSc1nnc(-c2cccnc2)o1,inactive: 0.78%
17,CC(C)c1ccc(OP(=O)(Nc2ccccn2)Oc2ccccc2F)cc1 (stereo not drawn),inactive: -3.19%
18,CCN(CC)C(=S)SC(NC=O)C(Cl)(Cl)Cl (stereo not drawn),inactive: 0.18%
19,CC(C)NC(=O)NP(=O)(Oc1ccccc1)Oc1ccccc1,inactive: 1.14%
20,O=[N+]([O-])c1cc([N+](=O)[O-])c(-c2ccn[nH]2)s1,inactive: 3.08%
21,C[As](=O)(O)c1cccc(C(=O)O)c1,inactive: 6.35%
22,O=[As](O)(c1ccc(O)cc1)c1ccccc1O,inactive: -1.84%
23,Cc1ccc(OP(=O)(Nc2ccc([N+](=O)[O-])cn2)Oc2ccc(C)cc2)cc1,inactive: -0.07%
24,Cc1ccc2nc3c(c(C)c2c1)CC(C(Cl)Cl)S3 (stereo not drawn),inactive: -0.59%
25,CCOC(=O)Nc1cccc([As](=O)(O)O)c1,inactive: -2.99%
26,O=P(Nc1ccccn1)(c1cccc2ccccc12)c1cccc2ccccc12,inactive: 3.89%

row,SMILES,inhibition
1,Cc1cc(SC(NC=O)C(Cl)(Cl)Cl)ncn1 (stereo not drawn),inactive: -0.62%
2,O=[N+]([O-])c1ccc(Nc2ccc(Oc3ccc([N+](=O)[O-])cc3[N+](=O)[O-])cc2)c([N+](=O)[O-])c1,inactive: 8.95%
3,CCOC(=O)Nc1ccc([As](=O)(O)O)c(O)c1,inactive: 1.99%
4,Cc1cc(SC(NC(=O)c2ccccc2)C(Cl)(Cl)Cl)nc(C(C)C)n1 (stereo not drawn),inactive: -4.96%
5,CCOC(=O)c1ccc(NC(=O)C(C)(CCl)SC)cc1 (stereo not drawn),inactive: 7.11%
6,CCC(C)N(CC(C)C)C(=S)SC(NC(C)=O)C(Cl)(Cl)Cl (stereo not drawn),inactive: -3.78%
7,COP1(=S)c2c(C)nn(CCC#N)c2N=C(c2ccc(F)cc2)N1C (stereo not drawn),inactive: -1.21%
8,O=C(COc1ccccc1)OC1CN2CCC1CC2 (stereo not drawn),inactive: 2.2%
9,CCN(/C(=N/P(=O)(N1CCOCC1)N1CCOCC1)N1CCOCC1)c1ccc(OC)cc1,inactive: -3.24%
10,Nc1ccc([As](=O)(O)c2ccc(N)cc2)cc1,inactive: 7.46%
11,C[N+]1=C2C=CC=CC=C2SC12C([N+](=O)[O-])=CC([N+](=O)[O-])=C[C-]2[N+](=O)[O-] (stereo not drawn),active: 24.1%
12,CC1CCN(C(=O)Oc2c(Cl)cc(Cl)c3cccnc23)CC1,inactive: -12.5%
13,CC(C)=N/N=C(\N)N[N+](=O)[O-],inactive: 7.05%
14,CN(C)C(=O)OCCc1n(C)cc[n+]1C,inactive: 3.03%
15,COc1ccc(C2=NCC(CBr)S2)cc1 (stereo not drawn),inactive: 1.44%
16,Cc1ccc(NP(=O)(Oc2ccccc2)Oc2ccccc2)nc1,inactive: -4.33%
17,CCc1nc2c(n1)c1c(non1O)c1c2no[n+]1[O-],active: 16.5%
18,O=[N+]([O-])c1cc([N+](=O)[O-])c(CCNc2ccccc2)c([N+](=O)[O-])c1,inactive: -0.07%
19,O=[N+]([O-])c1cccc2n[nH]nc12,inactive: -5.59%
20,CC(=O)N1C2C3N(C(C)=O)C1C1N(C(C)=O)C(C(N1C(C)=O)N3C(C)=O)N2C(C)=O,inactive: -3.9%
21,O=[N+]([O-])c1ncn(CCn2ncnc2[N+](=O)[O-])n1,inactive: 3.24%
22,CC(C)(C)C(=O)NC(Sc1ccncn1)C(Cl)(Cl)Cl (stereo not drawn),inactive: 4.05%
23,O=C(O)CNc1ccc([As](=O)(O)O)cc1,inactive: 1.65%
24,O=[N+]([O-])c1cccc(NC2=NCC(CBr)S2)c1 (stereo not drawn),inactive: -0.79%
25,O=C(Nc1cc([As](=O)(O)O)ccc1O)c1ccccc1,inactive: 9.07%
26,Nc1cccc2ccc([As](=O)(O)O)cc12,inactive: 6.39%

row,SMILES,inhibition
1,CCN(N=Nc1nonc1N)c1nonc1N,inactive: 0.21%
2,O=P(Nc1nc2ccc(Cl)cc2s1)(c1ccccc1)c1ccccc1,inactive: 4.54%
3,O=C(O)c1ccccc1[As](=O)(O)O,inactive: 11.6%
4,CC(=O)Nc1ccc([As](=O)(O)O)cc1,inactive: 4.54%
5,CCOP(=O)(Nc1ccccc1)OCC,inactive: 4.65% and inactive: 4.57%
6,Cc1cc(SC(NC(=O)c2ccc(F)cc2)C(Cl)(Cl)Cl)ncn1 (stereo not drawn),inactive: 4.91%
7,Cc1ccc(NP(=O)(Oc2ccccc2F)Oc2ccccc2F)nc1,inactive: -4.62%
8,Oc1ccccc1CNc1ccccn1,inactive: 2.59%
9,Cc1c2non([O-])c-2c(C)[n+](=O)[n+]1[O-],inactive: -2.56%
10,O=C(NC(Sc1ccncn1)C(Cl)(Cl)Cl)c1ccccc1 (stereo not drawn),inactive: -0.51%
11,CC(C)CC(=O)NC(Sc1ccc(Cl)cc1)C(Cl)(Cl)Cl (stereo not drawn),inactive: -0.04%
12,Nc1cc(N)c2nonc2c1[N+](=O)[O-],inactive: 1.35%
13,Cc1ccc(N/C(=N/P(=O)(N2CCOCC2)N2CCOCC2)N2CCOCC2)cc1,inactive: 3.21%
14,NC(=O)c1cc([N+](=O)[O-])cc([N+](=O)[O-])c1N,inactive: 2.11%
15,Clc1ccc(Cl)c(NC2=NCC(CBr)S2)c1 (stereo not drawn),inactive: 1.32%
16,CN1CCCC(OC(=O)C(c2ccccc2)c2ccccc2)C1 (stereo not drawn),inactive: 3.31%
17,COc1ccccc1OP(=O)(Nc1ccc(C)cn1)Oc1ccccc1OC,inactive: 2.47%
18,Cc1ccc(OP(=O)(Nc2nccs2)Oc2ccc(C)cc2)cc1,inactive: -4.14%
19,CC(=O)Nc1ccc([As](=O)(O)O)c(O)c1,inactive: 6.3%
20,CC(=O)Nc1ccc(Oc2c([N+](=O)[O-])cc([N+](=O)[O-])cc2[N+](=O)[O-])cc1,inactive: 0.3%
21,O=P1(Nc2nc3ccc(Cl)cc3s2)COc2ccccc2O1 (stereo not drawn),inactive: -3.35%
22,CCOc1ccc(C2=NCC(CBr)S2)cc1 (stereo not drawn),inactive: -5.96%
23,CC(C)(C)C(=O)NC(Sc1ccccc1)C(Cl)(Cl)Cl (stereo not drawn),inactive: 3.35%
24,CCC(=O)N1C2C3N(C(=O)CC)C1C1N(C(=O)CC)C(C(N1C(=O)CC)N3C(=O)CC)N2C(=O)CC,inactive: 1.2%
25,COC(=O)c1cc2c(s1)N=C(c1ccccc1)N(C)P2(=O)N1CCOCC1 (stereo not drawn),inactive: 3.61%
